Experimental findings from BindingDB's records for doi:10.1038/nsb921 (Mahidol University, 2003) are described below.

Amino acid sequences for entries named in this document (tags omitted).
UniProt Q8I1R6, whole entry N51I/C59R/S108N/I164L: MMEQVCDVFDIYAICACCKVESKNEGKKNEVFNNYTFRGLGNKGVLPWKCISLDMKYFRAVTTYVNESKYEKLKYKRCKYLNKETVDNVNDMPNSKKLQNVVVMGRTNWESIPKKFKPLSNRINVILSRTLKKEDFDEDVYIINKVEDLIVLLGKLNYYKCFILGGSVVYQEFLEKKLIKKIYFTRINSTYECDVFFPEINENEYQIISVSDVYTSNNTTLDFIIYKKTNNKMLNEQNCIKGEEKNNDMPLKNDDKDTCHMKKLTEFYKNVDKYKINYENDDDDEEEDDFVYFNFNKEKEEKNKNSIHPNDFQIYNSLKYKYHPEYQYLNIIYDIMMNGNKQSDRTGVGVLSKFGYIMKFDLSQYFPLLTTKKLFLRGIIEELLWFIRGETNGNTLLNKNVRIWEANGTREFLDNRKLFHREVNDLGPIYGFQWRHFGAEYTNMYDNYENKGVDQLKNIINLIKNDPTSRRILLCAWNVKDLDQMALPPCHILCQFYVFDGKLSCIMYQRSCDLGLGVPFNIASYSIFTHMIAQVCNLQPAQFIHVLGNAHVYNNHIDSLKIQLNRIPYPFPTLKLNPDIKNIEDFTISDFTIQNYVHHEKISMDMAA

This test has as its target Bifunctional dihydrofolate reductase-thymidylate synthase [N51I,C59R,S108N,I164L] (Plasmodium falciparum (isolate K1 / Thailand), UniProt Q8I1R6, C59R/I164L/N51I/S108N). In words: Antimalarial Testing In Vitro (IC50) and Measurement of Inhibition Constant (Ki). The following applies: pH 7; 25 °C. The method, then:
The activity of pfDHFR-TS was determined spectrophotometrically using a UV-Vis spectrophotometer.

Each structure is given as a SMILES string.

Regarding `CCc1nc(N)nc(N)c1-c1ccc(Cl)cc1`, the half-inhibitory concentration (IC50) (commonly the concentration that inhibits the measured activity by half) was over 100000 nM and the inhibitory constant (Ki) (as a rule, a measure of affinity in units of concentration, obtained from inhibition or displacement) was 283 nM.
